Protein sequences, listed by entry. Tags and fused reporters are not part of them.
UniProt Q15120, whole entry, looked up: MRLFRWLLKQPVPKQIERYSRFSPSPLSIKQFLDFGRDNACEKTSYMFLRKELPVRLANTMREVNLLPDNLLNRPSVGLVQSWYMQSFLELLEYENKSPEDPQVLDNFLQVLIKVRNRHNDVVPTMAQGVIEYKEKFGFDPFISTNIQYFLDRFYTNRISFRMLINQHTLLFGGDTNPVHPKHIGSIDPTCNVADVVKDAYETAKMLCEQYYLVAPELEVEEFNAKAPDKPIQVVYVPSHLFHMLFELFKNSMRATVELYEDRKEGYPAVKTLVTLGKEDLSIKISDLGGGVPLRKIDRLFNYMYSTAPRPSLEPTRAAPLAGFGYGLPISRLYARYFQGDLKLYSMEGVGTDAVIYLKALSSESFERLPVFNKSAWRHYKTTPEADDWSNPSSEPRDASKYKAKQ

According to ChEMBL document CHEMBL4007440, “Development of the First Generation of Disulfide-Based Subtype-Selective and Potent Covalent Pyruvate Dehydrogenase Kinase 1 (PDK1) Inhibitors” (J Med Chem, 2017):

How the values were obtained:
[1] = target: [Pyruvate dehydrogenase (acetyl-transferring)] kinase isozyme 2, mitochondrial (Homo sapiens, UniProt Q15119); assay: Ratio of Kinact to Ki for PDK2 (unknown origin)
[2] = target: [Pyruvate dehydrogenase (acetyl-transferring)] kinase isozyme 3, mitochondrial (Homo sapiens, UniProt Q15120); assay: Ratio of Kinact to Ki for PDK3 (unknown origin)
Kelly = assay: Antiproliferative activity against human Kelly cells after 72 hrs by CCK8 assay; type: functional, cell-based
Homo sapiens [3] = organism: Homo sapiens; assay: Selectivity ratio of Ki for full length His6-tagged PDK1 (unknown origin) over Ki for PDK2 (unknown origin)
Homo sapiens [4] = organism: Homo sapiens; assay: Selectivity ratio of Ki for full length His6-tagged PDK1 (unknown origin) over Ki for PDK3 (unknown origin)

Row | Structure (SMILES) | Ratio [1] | Ratio [2] | Activity (Kelly) | Ratio Ki (Homo sapiens [3]) | Ratio Ki (Homo sapiens [4])
1 | S=C(SSC(=S)N1CCOCC1)N1CCOCC1 | 0.56 ×10³ /M/s | 0.45 ×10³ /M/s | Dose-dependent effect |  | 
2 | COC[C@@H]1COCCN1C(=S)SSC(=S)N1CCOC[C@H]1COC | 0.3 ×10³ /M/s | 0.59 ×10³ /M/s | Dose-dependent effect |  | 
3 | S=C(SSC(=S)N1CCCOCC1)N1CCCOCC1 | 0.12 ×10³ /M/s | 0.11 ×10³ /M/s | Dose-dependent effect | 40 | 40
